Test results from PMC12186253, “Grafted Coiled-Coil Peptides as Multivalent Scaffolds for Protein Recognition” (ACS Chemical Biology, 2025).

Amino acid sequences for entries named in this document (tags omitted). Residues count along the entry.
UniProt Q07820, 172-327: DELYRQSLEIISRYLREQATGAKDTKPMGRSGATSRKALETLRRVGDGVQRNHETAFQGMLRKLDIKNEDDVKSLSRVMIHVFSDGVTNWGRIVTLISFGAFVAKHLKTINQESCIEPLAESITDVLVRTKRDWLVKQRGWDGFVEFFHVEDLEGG

Molecular target: T1, FAM-Ahx-BID/MCL-1 complex (Homo sapiens, UniProt Q07820)
T1 construct: residues 172 – 327; His6-SUMO (N, cleaved yes); made in house; host or cells: E. coli BL21-Gold (pET28a)
Experiment: Fluorescence anisotropy competition assay, FAM-Ahx-BID/MCL-1
Assay type: binding
Text: (1 picture or pasted object on this page, not shown here) […]

IC50: 400 ± 100 nM
SMILES: CC[C@H](C)[C@H](NC(=O)[C@H](CCCNC(=N)N)NC(=O)[C@H](CCCNC(=N)N)NC(=O)[C@H](CC(C)C)NC(=O)[C@H](CCC(N)=O)NC(=O)[C@H](C)NC(=O)[C@H](C)NC(C)=O)C(=O)NCC(=O)N[C@@H](CC(=O)O)C(=O)N[C@@H](CCCCN)C(=O)N[C@H](C(=O)N[C@@H](CC(N)=O)C(=O)N[C@@H](CC(C)C)C(=O)N[C@@H](CCCNC(=N)N)C(=O)N[C@@H](CCC(N)=O)C(=O)N[C@@H](CCCCN)C(=O)N[C@@H](CC(C)C)C(=O)N[C@@H](CC(C)C)C(=O)N[C@@H](CC(N)=O)C(N)=O)C(C)C [NOXA-B, reference compound]
